Test system: Human Peripheral Blood NK cells
Test: Bioenergetic profile of unstimulated or IL-2 stimulated and expanded NK cells (Seahorse XF)
Assay type: cell-based
Conditions: IL-2 1000 U/mL, 14 days of expansion; FIGS. 13A-13E
Method: The bioenergetic profile of unstimulated human peripheral blood NK cells or NK cells from the same donor stimulated with IL-2 and expanded in cell culture medium during 14 days was also determined. As described in Example 2, bioenergetic poise was calculated as the proportion of ATP generated by glycolysis to oxidative phosphorylation, while the reserve capacity or the bioenergetic capacity was calculated as the level of increase in glycolytic and mitochondrial activity that the cell can affect in response to an increase in energy demand.
The total bioenergetic capacity of unstimulated or expanded human peripheral blood NK cells (Stem Cell Technologies, Cat. No. 70036) was measured as described herein. NK cells were thawed and resuspended at 1×10^6 cells/mL and incubated overnight in RPMI supplemented with 2 mM glutamine, 10% FBS 37C in a 5% CO2 incubator or stimulated with IL-2 (1000 U/mL) and cultured during 14 days adjusting every 3 days cell density to 1×10^6 cells/mL. […] The basal ATP production rate, the compensatory glycolytic capacity, the total bioenergetic capacity, the mitochondrial bioenergetic capacity, and the spare respiratory capacity were calculated. […] (FIGS. 13A-13E)

## IL-2: interleukin used to stimulate and expand NK cells (1000 U/mL)
  basal ATP production and bioenergetic capacity versus unstimulated NK cells: higher basal ATP production and bioenergetic capacity

— patent US12704502B2, “Methods and systems for determining metabolic poise and capacity of living cells” (AGILENT TECHNOLOGIES, INC., priority 2021, dated 2026)
